From PubChem BioAssay AID540317 (National Center for Advancing Translational Sciences (NCATS), 2011) come the findings set out here.

Protein sequences, listed by entry. Tags and fused reporters are not part of them.
UniProt P83916, whole entry: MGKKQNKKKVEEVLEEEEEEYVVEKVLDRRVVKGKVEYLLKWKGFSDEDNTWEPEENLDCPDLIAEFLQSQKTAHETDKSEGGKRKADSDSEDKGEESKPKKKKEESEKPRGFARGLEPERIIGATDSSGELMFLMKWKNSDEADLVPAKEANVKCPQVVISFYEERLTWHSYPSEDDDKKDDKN

The entries are a selection whose mix differs from that of the whole data set. Results filed as inconclusive are left out. Calls of active or inactive are those of the source. Calls follow the shape of the dose curve; as a rule, active = well fitted inhibition curve with a large enough effect; inconclusive = small, poorly fitted or top-dose-only effect; inactive = no such curve, though single readings can be large or run the other way.

For this assay, the target named is Chromobox protein homolog 1 (Homo sapiens) (UniProt P83916). The assay is described as follows: HTS for Inhibitors of HP1-beta Chromodomain Interactions with Methylated Histone Tails. Also: nearly all actives have a fitted effect of over 70% in size. Conditions: AlphaScreen HP1-beta / biotin-H3K9me3 peptide binding; at 114 µM (top of the series). In general terms: In Alpha technology, singlet oxygen from a donor bead excites a nearby acceptor bead.
Take `O=[N+]([O-])c1cc([N+](=O)[O-])c(-n2nnc3ccccc32)c([N+](=O)[O-])c1`: the activity change, negative = inhibition is inactive: 27.8%.

For `Cc1nc2ccc3ccccc3c2s1.O=[N+]([O-])c1cc([N+](=O)[O-])c(O)c([N+](=O)[O-])c1`, the activity change, negative = inhibition is inactive: 10.3%.

As for `Cc1cc(C)cc(OP(C)(=O)Nc2ccc(SC(F)(F)F)cc2)c1` (stereo unspecified), the activity change, negative = inhibition was inactive: 19.5%.

For the molecule `CP(=O)(NC(=O)Nc1ccccc1)Oc1ccccc1` (stereo unspecified), the activity change, negative = inhibition was inactive: 16.6%.

For the molecule `CCc1ccc(OP(C)(=O)N2CCN(c3ccc([N+](=O)[O-])cc3)CC2)cc1` (stereo unspecified), the activity change, negative = inhibition was inactive: -5.73%.

As for `CP(=O)(Oc1ccccc1)OC(c1ccccc1)C(F)(F)F` (stereo unspecified), the activity change, negative = inhibition was inactive: 35.2%.

Take `Cc1cccc(C)c1OP(C)(=O)Nc1ccc(SC(F)(F)F)cc1` (stereo unspecified): the activity change, negative = inhibition is inactive: 17.3%.

With `CP(=O)(Nc1ccc(SC(F)(F)F)cc1)Oc1ccc(Cl)cc1` (stereo unspecified), the activity change, negative = inhibition is inactive: 39.7%.

For `CP(=O)(Nc1ccccn1)Oc1ccc(Cl)cc1` (stereo unspecified), the activity change, negative = inhibition is inactive: 30.8%.

Regarding `CCOP(C)(=S)SCC(=O)NC(C)C(=O)O` (stereo unspecified), the activity change, negative = inhibition was inactive: 39.4%.

Turning to `CCOC(=O)c1ccc(NP(C)(=O)Oc2ccc(OC)cc2)cc1` (stereo unspecified), the activity change, negative = inhibition is inactive: 29.4%.

For the molecule `O=[N+]([O-])c1cc([N+](=O)[O-])c(O)c([N+](=O)[O-])c1.c1ccc(Oc2ccncc2)cc1`, the activity change, negative = inhibition is inactive: -6.75%.

`COc1ccccc1OP(C)(=O)Nc1ccccc1` (stereo unspecified): the activity change, negative = inhibition is inactive: 9.92%.

For `CP(=O)(Nc1ccccc1Br)Oc1ccccc1` (stereo unspecified), the activity change, negative = inhibition is inactive: 45.5%.

Take `CP(=S)(Nn1cnnc1)Oc1ccccc1` (stereo unspecified): the activity change, negative = inhibition is inactive: 10.2%.

Consider `Cc1cccc(C)c1OP(C)(N)=O` (stereo unspecified), for which the activity change, negative = inhibition was inactive: 10.1%.

With `CC(C)(C)c1ccc(OP(C)(=O)Nc2ccc(SC(F)(F)F)cc2)cc1` (stereo unspecified), the activity change, negative = inhibition was inactive: 34.2%.

As to `O=[N+]([O-])c1ccc2c(c1)C=Nc1ccccc1O2`, the activity change, negative = inhibition is inactive: -4.08%.

As for `O=[N+]([O-])c1cc([N+](=O)[O-])c(Nc2cccnc2)c([N+](=O)[O-])c1`, the activity change, negative = inhibition was inactive: 18%.

On to `COc1ccc(OP(C)(=O)Nc2cccc(F)c2)cc1` (stereo unspecified), for which the activity change, negative = inhibition was inactive: 60.3%.

For the molecule `COc1ccccc1OP(C)(=O)Nc1cc(Cl)ccc1C` (stereo unspecified), the activity change, negative = inhibition is inactive: 41.2%.

Turning to `Cc1cc(C)cc(OP(C)(N)=O)c1` (stereo unspecified), the activity change, negative = inhibition is inactive: 27.9%.

For the molecule `CCOC(=O)c1ccc(NP(C)(=O)Oc2ccccc2)cc1` (stereo unspecified), the activity change, negative = inhibition is inactive: 8.17%.

Turning to `Cc1ccc(NP(C)(=O)Oc2ccccc2)c(C)c1` (stereo unspecified), the activity change, negative = inhibition is inactive: 54.4%.

Regarding `COc1ccccc1OP(C)(=O)Nc1ccc(C)cc1` (stereo unspecified), the activity change, negative = inhibition was inactive: 16.1%.

In the case of `CCN(CC)CCCOC(=O)C(O)(c1ccccc1)c1ccccc1`, the activity change, negative = inhibition was inactive: 36.2%.
